# System: mice
# Details: mouse, in vivo
compound,measurement,value
"CS(=O)(=O)O.Cc1ccc(C(=O)Nc2ccc(CN3CCN(C)CC3)c(C(F)(F)F)c2)cc1C#Cc1nnc2ccccn12 [methanesulfonic acid salt, 3-(1,2,4-triazolo[4,3-a]pyridine-3-ylethynyl)-4-methyl-N-(4-((4-methylpiperazin-1-yl)methyl)-3-trifluoromethylphenyl)benzamide mono methanesulfonic acid salt]",phagocytic activity of neutrophils separated from blood,did not change the phagocytic activity of neutrophils

# — US11225474B2, “Crystalline salt forms of 3-(1,2,4-triazolo[4,3-a]pyridine-3-ylethynyl)-4-methyl-N-(4-((4-methylpiperazin-1-yl)methyl)-3-trifluoromethylphenyl)benzamide for medical application” (priority 2016, dated 2022)
